This assay concerns the target 5-hydroxytryptamine receptor 7 (Homo sapiens, UniProt P34969).

Chains of the proteins cited; added tags and fusions are not shown.
UniProt P34969, whole entry: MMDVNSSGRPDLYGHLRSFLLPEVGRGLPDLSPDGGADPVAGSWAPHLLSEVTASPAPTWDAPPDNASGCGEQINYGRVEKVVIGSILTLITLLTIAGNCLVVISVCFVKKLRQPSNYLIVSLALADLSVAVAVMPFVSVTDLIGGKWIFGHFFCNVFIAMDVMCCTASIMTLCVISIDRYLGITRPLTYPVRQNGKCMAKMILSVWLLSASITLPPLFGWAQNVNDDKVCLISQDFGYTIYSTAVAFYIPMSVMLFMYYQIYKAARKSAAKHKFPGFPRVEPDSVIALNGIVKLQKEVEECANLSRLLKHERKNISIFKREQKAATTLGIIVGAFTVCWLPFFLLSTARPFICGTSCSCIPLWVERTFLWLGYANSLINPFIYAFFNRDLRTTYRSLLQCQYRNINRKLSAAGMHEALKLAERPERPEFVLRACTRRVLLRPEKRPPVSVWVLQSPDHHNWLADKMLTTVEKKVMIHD

This is an account of results in BindingDB's records for doi:10.1038/sj.bjp.0701946 (Smithkline Beecham Pharmaceuticals, 1998).

Structures are written as SMILES.

For the compound `CCCN(CCC)C1CCc2cccc(O)c2C1` (stereo unspecified), affinity was put at a Ki of 251 nM.

A word on the Ki: it is a measure of affinity in units of concentration, obtained from inhibition or displacement. Read a low Ki as a stronger hold on the target.
